Like-named read-outs stand apart in the source and are kept apart here.
Key:
murine macrophage iNOS = murine macrophage iNOS (Mus musculus (Mouse), UniProt P29477); test: Murine iNOS hemoglobin capture assay
Rat nNOS = Rat nNOS (Rattus norvegicus (Rat), UniProt P29476); test: Rat nNOS hemoglobin capture assay
Hippocampal slices = test: Mitochondrial metabolic activity in hippocampal slices after OGD, TTC staining; details: 50 μM; 10 min OGD; control live normalized to 100%; n=8
NMDA-induced currents = test: NMDA-induced whole-cell currents in rat cortical neurons; details: dose-dependent, FIG. 4
[1] = tested on: NMDA-induced Ca^2+ influx; test: NMDA induced Ca2+ influx, Fluo-4FF; details: 10-50 μM; NMDA 25 μM, 15 minute; FIG. 3
[2] = biological target: human inducible NOS (iNOS) (Homo sapiens (Human), UniProt P35228); test: Human iNOS enzyme assay, radiometric; details: read-out: Human iNOS; Table 2b
[3] = tested on: rat cortical neuronal cultures; test: Neuroprotection of rat cortical cells against NMDA challenge; details: 60-minute pre-incubation; 30 minutes 25 μM NMDA; propidium iodide after 24 hrs; FIG. 1
[4] = tested on: L5/L6 spinal nerve ligation; test: Chung spinal nerve ligation (SNL) model of neuropathic pain; details: rats
[5] = tested on: formalin-induced hind paw licking; test: Formalin-induced paw licking in mice; type: in vivo; details: intraperitoneally 30 minutes before formalin, Phase II (20 to 30 minute), FIG. 5
bovine eNOS = bovine eNOS (Bos taurus (Bovine), UniProt P29473); test: Bovine eNOS hemoglobin capture assay; type: biochemical
CA1 hippocampal slices = test: Evoked field potentials in CA1 hippocampal slices after OGD
traumatic brain injury = test: Mouse model of traumatic brain injury (TBI)
Neuronal cultures = test: Neuroprotection after oxygen-glucose deprivation (OGD), neuronal cultures; details: 25 μM; 90-minute OGD; 60-minute pre-incubation; propidium iodide after 24 hours; FIG. 2
[6] = read-out: Murine iNOS, Table 2a, tested form: HCl
[7] = read-out: Rat nNOS, Table 2a, tested form: HCl
[8] = read-out: Bovine eNOS, Table 2a
[9] = One hour after TBI, s.c. 5 minutes post-injury

Sequences of proteins named here, by UniProt entry; tags and fusion partners are left off. Residues count along the entry.
UniProt P29477, whole entry: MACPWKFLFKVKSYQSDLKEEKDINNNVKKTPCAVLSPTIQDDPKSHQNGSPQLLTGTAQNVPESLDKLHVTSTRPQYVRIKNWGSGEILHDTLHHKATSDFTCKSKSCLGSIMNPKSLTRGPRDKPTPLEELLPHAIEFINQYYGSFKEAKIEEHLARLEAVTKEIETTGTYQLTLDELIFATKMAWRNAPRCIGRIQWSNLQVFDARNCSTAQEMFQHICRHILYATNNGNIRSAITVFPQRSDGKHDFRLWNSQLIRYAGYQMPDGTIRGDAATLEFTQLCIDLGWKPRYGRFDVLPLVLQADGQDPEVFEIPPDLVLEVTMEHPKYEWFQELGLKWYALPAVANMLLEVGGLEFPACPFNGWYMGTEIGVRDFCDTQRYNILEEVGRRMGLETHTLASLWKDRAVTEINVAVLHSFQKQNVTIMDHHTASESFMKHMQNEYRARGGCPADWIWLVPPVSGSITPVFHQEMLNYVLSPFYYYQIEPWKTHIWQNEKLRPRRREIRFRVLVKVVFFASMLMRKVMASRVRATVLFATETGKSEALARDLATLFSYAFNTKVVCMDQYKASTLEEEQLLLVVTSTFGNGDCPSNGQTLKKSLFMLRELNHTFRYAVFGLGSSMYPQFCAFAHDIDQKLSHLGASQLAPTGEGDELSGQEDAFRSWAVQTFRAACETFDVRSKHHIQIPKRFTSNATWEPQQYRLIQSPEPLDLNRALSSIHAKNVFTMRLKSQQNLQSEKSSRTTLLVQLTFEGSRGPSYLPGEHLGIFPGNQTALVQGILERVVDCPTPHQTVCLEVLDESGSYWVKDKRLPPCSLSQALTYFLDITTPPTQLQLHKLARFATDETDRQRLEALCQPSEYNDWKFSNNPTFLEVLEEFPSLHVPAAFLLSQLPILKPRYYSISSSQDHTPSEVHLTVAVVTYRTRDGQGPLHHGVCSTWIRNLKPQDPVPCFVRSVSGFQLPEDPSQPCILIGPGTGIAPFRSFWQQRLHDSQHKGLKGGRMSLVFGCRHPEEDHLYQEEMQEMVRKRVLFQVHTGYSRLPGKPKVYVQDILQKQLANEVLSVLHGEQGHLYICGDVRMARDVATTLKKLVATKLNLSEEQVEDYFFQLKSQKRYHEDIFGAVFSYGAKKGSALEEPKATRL
UniProt P29476, whole entry: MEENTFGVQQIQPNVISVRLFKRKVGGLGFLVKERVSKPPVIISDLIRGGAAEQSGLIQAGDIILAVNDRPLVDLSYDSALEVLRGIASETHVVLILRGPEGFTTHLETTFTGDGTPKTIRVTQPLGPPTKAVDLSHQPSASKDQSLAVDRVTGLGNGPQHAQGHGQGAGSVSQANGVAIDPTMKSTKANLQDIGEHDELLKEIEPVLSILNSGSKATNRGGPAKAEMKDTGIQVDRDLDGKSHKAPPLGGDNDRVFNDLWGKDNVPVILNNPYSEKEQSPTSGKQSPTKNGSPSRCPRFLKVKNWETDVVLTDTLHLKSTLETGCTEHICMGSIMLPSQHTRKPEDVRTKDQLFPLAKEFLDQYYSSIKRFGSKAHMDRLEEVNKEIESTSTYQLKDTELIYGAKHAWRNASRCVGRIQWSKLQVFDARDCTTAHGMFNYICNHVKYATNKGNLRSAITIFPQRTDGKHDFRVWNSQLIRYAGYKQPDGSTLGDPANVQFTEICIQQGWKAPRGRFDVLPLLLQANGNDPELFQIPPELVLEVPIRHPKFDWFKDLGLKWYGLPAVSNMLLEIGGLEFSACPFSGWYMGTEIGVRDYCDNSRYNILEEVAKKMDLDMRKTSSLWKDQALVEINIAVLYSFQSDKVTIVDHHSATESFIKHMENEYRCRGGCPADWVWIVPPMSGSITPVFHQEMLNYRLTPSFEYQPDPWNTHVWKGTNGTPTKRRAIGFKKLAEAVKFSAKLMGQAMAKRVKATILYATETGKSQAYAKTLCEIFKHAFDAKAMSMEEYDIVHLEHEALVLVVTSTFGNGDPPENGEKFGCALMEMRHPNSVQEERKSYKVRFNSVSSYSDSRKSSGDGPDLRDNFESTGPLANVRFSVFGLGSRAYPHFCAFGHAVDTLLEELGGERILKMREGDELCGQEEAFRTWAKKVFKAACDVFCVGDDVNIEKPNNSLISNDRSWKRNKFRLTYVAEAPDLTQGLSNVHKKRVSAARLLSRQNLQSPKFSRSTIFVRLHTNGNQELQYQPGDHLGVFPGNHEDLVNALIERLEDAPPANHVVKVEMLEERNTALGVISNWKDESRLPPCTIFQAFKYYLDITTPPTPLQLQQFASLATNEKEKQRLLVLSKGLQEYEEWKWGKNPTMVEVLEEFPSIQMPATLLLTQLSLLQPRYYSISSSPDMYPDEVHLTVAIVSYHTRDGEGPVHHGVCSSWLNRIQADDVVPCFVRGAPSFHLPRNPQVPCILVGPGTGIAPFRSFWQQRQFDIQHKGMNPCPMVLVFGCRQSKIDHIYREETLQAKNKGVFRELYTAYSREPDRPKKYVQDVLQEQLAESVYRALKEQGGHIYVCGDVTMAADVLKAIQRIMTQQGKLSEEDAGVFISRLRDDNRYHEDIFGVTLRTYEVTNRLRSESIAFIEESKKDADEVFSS
UniProt P35228, whole entry: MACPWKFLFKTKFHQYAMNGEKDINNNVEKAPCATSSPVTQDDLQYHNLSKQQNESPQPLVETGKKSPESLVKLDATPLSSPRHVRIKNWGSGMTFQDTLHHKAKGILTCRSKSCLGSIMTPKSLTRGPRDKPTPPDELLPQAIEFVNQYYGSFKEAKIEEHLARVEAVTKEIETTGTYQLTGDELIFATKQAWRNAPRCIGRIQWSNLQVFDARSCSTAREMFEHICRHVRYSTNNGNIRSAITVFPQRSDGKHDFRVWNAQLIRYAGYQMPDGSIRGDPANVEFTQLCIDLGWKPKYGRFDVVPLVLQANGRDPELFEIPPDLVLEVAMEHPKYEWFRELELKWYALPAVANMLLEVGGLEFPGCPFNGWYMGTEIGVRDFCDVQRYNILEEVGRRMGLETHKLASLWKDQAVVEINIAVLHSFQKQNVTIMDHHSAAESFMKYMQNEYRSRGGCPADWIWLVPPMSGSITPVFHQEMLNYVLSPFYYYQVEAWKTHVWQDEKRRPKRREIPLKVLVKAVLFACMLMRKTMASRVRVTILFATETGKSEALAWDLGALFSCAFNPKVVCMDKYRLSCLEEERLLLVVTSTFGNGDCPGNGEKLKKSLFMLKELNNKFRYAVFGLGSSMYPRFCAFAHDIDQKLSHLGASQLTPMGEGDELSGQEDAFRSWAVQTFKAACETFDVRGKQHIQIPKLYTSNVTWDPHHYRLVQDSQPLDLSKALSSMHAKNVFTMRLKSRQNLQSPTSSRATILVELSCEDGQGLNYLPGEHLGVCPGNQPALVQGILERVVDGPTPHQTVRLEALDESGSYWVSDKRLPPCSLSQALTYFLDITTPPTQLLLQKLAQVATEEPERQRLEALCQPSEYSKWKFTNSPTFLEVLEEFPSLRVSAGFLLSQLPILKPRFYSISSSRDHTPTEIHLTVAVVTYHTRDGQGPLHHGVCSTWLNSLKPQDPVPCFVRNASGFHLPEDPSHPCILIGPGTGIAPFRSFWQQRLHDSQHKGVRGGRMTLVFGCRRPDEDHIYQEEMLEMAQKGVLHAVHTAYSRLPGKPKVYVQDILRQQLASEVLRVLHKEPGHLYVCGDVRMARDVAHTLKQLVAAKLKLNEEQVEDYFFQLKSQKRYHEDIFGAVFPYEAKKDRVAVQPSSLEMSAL
UniProt P29473, 2-1205 limits assumed: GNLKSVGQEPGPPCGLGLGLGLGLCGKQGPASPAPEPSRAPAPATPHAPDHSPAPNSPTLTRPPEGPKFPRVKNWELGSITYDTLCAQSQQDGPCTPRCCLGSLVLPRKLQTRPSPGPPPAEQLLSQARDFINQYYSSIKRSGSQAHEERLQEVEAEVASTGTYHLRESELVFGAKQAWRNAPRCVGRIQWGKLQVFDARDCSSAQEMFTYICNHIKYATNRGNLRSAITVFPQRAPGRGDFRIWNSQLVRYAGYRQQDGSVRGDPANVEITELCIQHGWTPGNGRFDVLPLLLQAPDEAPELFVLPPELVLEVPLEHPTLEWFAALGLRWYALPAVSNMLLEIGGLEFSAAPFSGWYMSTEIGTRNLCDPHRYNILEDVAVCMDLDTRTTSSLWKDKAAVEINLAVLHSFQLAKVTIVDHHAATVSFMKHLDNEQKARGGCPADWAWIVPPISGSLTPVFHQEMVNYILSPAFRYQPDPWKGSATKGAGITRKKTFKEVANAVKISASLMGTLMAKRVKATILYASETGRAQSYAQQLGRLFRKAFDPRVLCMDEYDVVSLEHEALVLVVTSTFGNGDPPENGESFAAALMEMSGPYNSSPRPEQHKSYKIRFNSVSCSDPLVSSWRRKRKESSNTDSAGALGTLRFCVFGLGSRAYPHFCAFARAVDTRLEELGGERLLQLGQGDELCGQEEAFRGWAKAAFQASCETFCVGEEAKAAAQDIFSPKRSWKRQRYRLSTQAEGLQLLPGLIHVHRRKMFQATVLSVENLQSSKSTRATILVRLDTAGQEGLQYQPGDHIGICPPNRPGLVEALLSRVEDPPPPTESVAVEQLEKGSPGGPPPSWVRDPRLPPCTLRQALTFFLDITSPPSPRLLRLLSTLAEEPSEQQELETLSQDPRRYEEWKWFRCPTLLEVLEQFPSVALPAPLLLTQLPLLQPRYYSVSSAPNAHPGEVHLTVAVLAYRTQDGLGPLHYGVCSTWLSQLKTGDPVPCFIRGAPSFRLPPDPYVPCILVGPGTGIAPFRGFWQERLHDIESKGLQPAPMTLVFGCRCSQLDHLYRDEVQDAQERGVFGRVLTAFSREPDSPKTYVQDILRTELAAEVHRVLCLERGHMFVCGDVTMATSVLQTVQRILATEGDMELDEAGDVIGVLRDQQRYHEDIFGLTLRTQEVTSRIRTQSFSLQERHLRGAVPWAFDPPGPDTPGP

In the case of `CCSC(=N)Nc1ccc2ccn(CCN(C)C)c2c1`, the IC50 (murine macrophage iNOS; [6]) is reported as 56 µM and the IC50 (Rat nNOS; [7]) is reported as 2.3 µM.
In the case of `CN(C)CCn1ccc2ccc(NC(=N)c3cccs3)cc21`, the “absorbance retained (TTC staining)” value (Hippocampal slices) is reported as 92±18%, the “block of NMDA-induced currents” value (NMDA-induced currents) is reported as “effectively blocked NMDA-induced currents” and the “inhibition of NMDA-induced Ca^2+ influx” value [1] is reported as “dose-dependent (10-50 μM) inhibition”. The IC50 [2] was 60 µM, the “protection of neuronal cells from death upon NMDA challenge” value [3] was “protected neuronal cells from death” and the tactile hyperthesia ([4]; L5/L6 spinal nerve ligation, FIGS. 20 and 22) was “reversal of tactile hyperthesia”. The thermal hyperalgesia ([4]; one standard dose (10 mg/kg) injected IP, FIG. 19, 21) was “clear antihyperalgesic effect”, the “formalin-induced hind paw licking” value [5] was “reduction in the frequency of paw licking” and the IC50 (bovine eNOS; [8]) was 211 µM. For the same molecule, the IC50 (murine macrophage iNOS; read-out: Murine iNOS, Table 2a) was 109 µM, the PS amplitude (CA1 hippocampal slices; 50 μM, slices exposed to 10 min OGD, n=3) was 2.1±1.5 mV and the “preservation of population spike” value (CA1 hippocampal slices; slices after 10 min OGD, compound 12 50 μM, 7-NI 100 μM, FIG. 16) was “preservation of population spike”. For the same molecule, the Hall score (traumatic brain injury; 4 hours after TBI, 6 mg/kg s.c.) was “significant improvement”, the grip score (traumatic brain injury; 4 hours following TBI, 3 mg/kg s.c.) was “significant improvement” and the grip score (traumatic brain injury; 4 hours following TBI, 6 mg/kg s.c.) was “trend towards improvement”. For the same molecule, the string score (traumatic brain injury; 4 hours following TBI, 3 and 6 mg/kg s.c.) was “significant improvement”, the body weight (traumatic brain injury; 24 hours after TBI, 3 mg/kg) was “significant improvement in body weight” and the “string, grip and Hall scores” value (traumatic brain injury; 24 hours after TBI, single s.c. dose) was “non-significant trend towards improvement”. For the same molecule, the body temperature (traumatic brain injury; 24 hours post TBI, low-dose 1 mg/kg, vs uninjured or 3 or 6 mg/kg) was “lower body temperature”, the Hall score (traumatic brain injury; [9]) was “no significant improvement” and the string score (traumatic brain injury; [9]) was “no significant improvement”. The body temperature (traumatic brain injury; One hour post TBI, treated vs control injured mice) was “no difference between treated and control mice”, the IC50 (Rat nNOS; read-out: Rat nNOS, Table 2a) was 8.8 µM and the “protection of neurons against OGD insult” value (Neuronal cultures) was “protected neurons”.
`N=C(Nc1ccc2ccn(CCNCCc3ccc(Br)cc3)c2c1)c1cccs1` gave an IC50 (bovine eNOS; read-out: Bovine eNOS, Table 2a, tested form: HCl) of 103 µM, an IC50 (murine macrophage iNOS; [6]) of 213 µM and an IC50 (Rat nNOS; [7]) of 3.7 µM.
In the case of `N=C(Nc1ccc2ccn(CCN3CCCC3)c2c1)c1cccs1`, the “protection of neuronal cells from death upon NMDA challenge” value [3] is reported as “protected neuronal cells from death”, the IC50 (bovine eNOS; [8]) is reported as 29.2 µM and the IC50 (Rat nNOS; read-out: Rat nNOS, Table 2a) is reported as 9.4 µM.

Reference: US8586620B2, “Substituted indole compounds having NOS inhibitory activity” (NeurAxon, Inc., priority 2005, dated 2013)
